Drawing on ChEMBL document CHEMBL5634157, “Design and synthesis of certain 7-Aryl-2-Methyl-3-Substituted Pyrazolo{1,5-a}Pyrimidines as multikinase inhibitors” (Eur J Med Chem, 2023), this text covers inhibition for one compound.

The test has as its target T1, Activin receptor type-1 (Homo sapiens) (UniProt Q04771).
T1 sequence (whole entry): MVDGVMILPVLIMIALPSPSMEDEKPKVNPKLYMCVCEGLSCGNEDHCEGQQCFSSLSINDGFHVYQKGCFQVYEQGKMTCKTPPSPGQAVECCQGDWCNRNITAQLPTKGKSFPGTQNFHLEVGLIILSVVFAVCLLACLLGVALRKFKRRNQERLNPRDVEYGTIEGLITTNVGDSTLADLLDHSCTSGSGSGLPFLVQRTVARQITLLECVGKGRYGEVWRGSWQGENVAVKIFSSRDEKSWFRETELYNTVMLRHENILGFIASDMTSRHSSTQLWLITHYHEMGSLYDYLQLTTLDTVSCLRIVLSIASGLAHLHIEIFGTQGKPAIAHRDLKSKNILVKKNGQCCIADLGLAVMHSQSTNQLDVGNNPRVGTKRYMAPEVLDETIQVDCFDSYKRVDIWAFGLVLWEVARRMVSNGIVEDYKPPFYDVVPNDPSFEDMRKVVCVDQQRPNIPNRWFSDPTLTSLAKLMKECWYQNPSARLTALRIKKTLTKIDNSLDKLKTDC
The experiment in a line: Inhibition of ALK2 in human EKVX cells by Western blotting analysis. In kind it is cell-based.

Calls of active or inactive are those of the source. The rule behind the calls is not given here.

For `COc1ccc(-c2ccnc3c(-c4noc(C)n4)c(C)nn23)cc1`, the inhibition result is “Active”.
